Measurements reported in publication PMC10899660, “Global fungal-host interactome mapping identifies host targets of candidalysin” (Nature Communications, 2024).

Tests used:
CCNH = assay: Co-immunoprecipitation of CCNH-3×FLAG with EGFP-tagged Ece1 peptides in HEK-293T cells; type: binding, human; conditions: CCNH-3×FLAG and Ece1-EGFP
Method: The overexpression plasmids CCNH-3×FLAG and Ece1-II-EGFP, Ece1-III-EGFP, Ece1-IV-EGFP and Ece1-V-EGFP were co-transfected into 5×10^5 HEK-293T cells by Lipofectamine™ 3000 (Thermo Scientific™, L3000001) respectively. The HEK-293T cells were lysed for 48 h in RIPA buffer (Beyotime, P0013B) and added with the Phosphatase inhibitor cocktail D (Beyotime, P1096) and Phenylmethanesulfonyl fluoride (Beyotime, ST505) for 30 minutes on ice. After microcentrifuge for 15 minutes at 4 °C, the supernatants were heated at 100 °C for 5 min as the input group. The remaining supernatants were divided into two equal group: the GFP group added with GFP (5G4) Mouse mAb (Magnetic Bead Conjugate) (Cell Signaling Technology, #67090) at 1:10 dilution, and the IgG group added with Mouse IgG (Magnetic Bead Conjugate) (Cell Signaling Technology, #5873) at 1:10 dilution. Both groups were incubated with rotation overnight at 4 °C. By using magnetic rack to pellet beads, the samples were washed and lysised for western blot assay. Primers used are as follows: Candidalysin-VN173-internal-F (5′- […]-3′) and Candidalysin-VN173-internal-R (5′- […]-3′), CCNH-VC155-internal-F (5′-[…]-3′) and CCNH-VC155-internal-R (5′-[…]-3′). […]

FaDu cells [1] = assay: Calcein/PI viability/cytotoxicity assay, FaDu cells; type: cell-based; conditions: 10 μM, 4 h
Method: CHO-K1 cells were deposited into 96-well plates and incubated at 37 °C with 5% CO2. Before the viability assay, cells were starved in serum-free F12K medium overnight. Calcein/PI Cell Viability/Cytotoxicity Assay Kit (DOJINDO, C542) was applied to determine the cell viability that were treated by candidalysin for 4 h.

FaDu cells [2] = assay: LDH cytotoxicity assay, FaDu cells; type: cell-based
Method: (§1) Cells were deposited into 96-well plates and incubated at 37 °C with 5% CO2. Prior to the cell damage assay, cells were starved in serum-free medium overnight. Cytotoxicity LDH Assay Kit-WST (Dojindo, #CK12) was applied to determine the lactate dehydrogenase (LDH) activity released from cells that were damaged by candidalysin for 2 h or 4 h according to the manufacturer’s instructions.

CHO-K1 cells = assay: Cell-cycle analysis by flow cytometry (propidium iodide), CHO-K1 cells; type: cell-based; conditions: 4 h
Method: For cell-cycle analysis, cells were collected and fixed overnight in 70% ethanol at −20 °C, washed and resuspended in 100 μg/mL RNase A Reagent for 30 min at 37 °C, then treated with 15 μg/mL propidium iodide (Elabscience, E-CK-A351) at 4 °C for 30 min in dark condition. After staining, cell-cycle analyses were carried out by flow cytometry. Data were analyzed with the FlowJo software (Tree Star). At least 1 × 10^4 cells were acquired per sample, and every experiment was repeated at least three times.

A549 epithelial cells = assay: Cell damage and cytokine secretion, A549 cells; type: cell-based
Method: as §1

Cyclin H (CCNH) = biological target: T1, Cyclin H (CCNH) (Homo sapiens, UniProt P51946); assay: Surface plasmon resonance (SPR) on BIAcore; type: binding
T1 construct: purchased Sino Biological Inc. Lot; ME12NO2769 (a lot number; catalogue number not given); host or cells: E. coli
T1 sequence (P51946 1-323): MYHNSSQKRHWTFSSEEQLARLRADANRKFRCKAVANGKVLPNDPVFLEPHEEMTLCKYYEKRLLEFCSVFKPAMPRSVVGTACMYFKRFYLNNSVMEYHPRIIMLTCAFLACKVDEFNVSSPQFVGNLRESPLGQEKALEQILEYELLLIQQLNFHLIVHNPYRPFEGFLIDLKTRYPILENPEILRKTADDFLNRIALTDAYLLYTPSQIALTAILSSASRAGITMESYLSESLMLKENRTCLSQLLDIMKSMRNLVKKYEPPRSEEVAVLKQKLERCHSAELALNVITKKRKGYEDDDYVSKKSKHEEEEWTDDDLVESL
Method: Recombinant Cyclin H (CCNH) protein with a C-HIS tag (Lot. ME12NO2769, 38.46 kDa) was obtained from Sino Biological Inc. and stored at −80 °C. In short, the cyclin H (Homo sapiens) gene was amplified by PCR and cloned into an expression vector which was transformed into E. coli followed by the selection and establishment of high expression transformants. The protein was purified using immobilized metal ion affinity chromatography and dissolved in PBS (pH 7.4). SPR measurement was performed with Biacore T200 instrument (GE), at 25 °C, with a flow rate of 30 μL/min. CM5 sensor chips, HBS-EP running buffer and the Amine Coupling Kit, including 1-ethyl-3(3-dimethylaminopropyl) carbodiimide hydrochloride (EDC), N-hydroxysuccinimide (NHS), 1.0 M ethanolamine-HCl (pH 8.5) were purchased from GE. The binding properties of candidalysin to CCNH were evaluated upon immobilization of CCNH onto CM5 chip surface in flow cell 2 (FC-2) using Biacore Amine Coupling Kit according to the manufacturer’s instructions. CCNH was diluted to 20 μg/ml in acetate buffer (pH 4.0) in advance and immobilized on the CM5 Chip following the EDC/NHS protocol. The reached immobilized target level was 1200 RU. The reference flow cell (FC-1) was blank-immobilized following the templated procedure. BIAcore measurements were performed starting from a 1:1 serial dilution of candidalysin following the templated multicycle analysis (association time 120 s, dissociation time 150 s, flow 30 μL/min). The SPR measurement for Ece1-II, Ece1-IV, Ece1-V and human cathelicidin (Solarbio, CLP0454) to CCNH were performed with Biacore 8 K instrument (GE) by PBST running buffer, and the other conditions were the same.

SMILES: CC[C@H](C)[C@H](NC(=O)CNC(=O)[C@H](CCSC)NC(=O)[C@@H](NC(=O)[C@@H](NC(=O)CNC(=O)[C@@H](NC(=O)[C@@H](NC(=O)[C@@H](N)CO)[C@@H](C)CC)[C@@H](C)CC)[C@@H](C)CC)[C@@H](C)CC)C(=O)N[C@@H](CC(C)C)C(=O)NCC(=O)N[C@@H](CC(N)=O)C(=O)N[C@H](C(=O)N1CCC[C@H]1C(=O)N[C@@H](CCC(N)=O)C(=O)N[C@H](C(=O)N[C@H](C(=O)N[C@@H](CCC(N)=O)C(=O)N[C@H](C(=O)N[C@H](C(=O)N[C@@H](CCSC)C(=O)N[C@@H](CO)C(=O)N[C@H](C(=O)N[C@H](C(=O)N[C@@H](CCCCN)C(=O)N[C@@H](C)C(=O)N[C@@H](Cc1ccccc1)C(=O)N[C@@H](CCCCN)C(=O)NCC(=O)N[C@@H](CC(N)=O)C(=O)N[C@@H](CCCCN)C(=O)O)C(C)C)[C@@H](C)CC)[C@@H](C)CC)[C@@H](C)CC)[C@@H](C)CC)C(C)C)[C@@H](C)CC [Ece1-III]
- interaction with CCNH by Co-IP (CCNH): direct interaction
- toxicity (FaDu cells [1]): non-toxic
- cell damage and cytokine secretion (FaDu cells [2]): induced both cell damage and cytokine secretion
- LDH release (FaDu cells [2]; 5 to 80 µM): significantly increased
- cell cycle (CHO-K1 cells; 10 μM): effectively blocked cell cycle in the G2/M phase
- cell cycle (CHO-K1 cells; 20 μM): blocked cells in the S phase
- cell damage and cytokine secretion (A549 epithelial cells): induced both cell damage and cytokine secretion
- binding to CCNH by SPR, in words (Cyclin H (CCNH); BIAcore, compared to Amp): strongest binding
- (-) lg (KD fold change) (Cyclin H (CCNH); SPR, KD relative to CCNH-Amp): 3.561
- Fold Change (KD) (Cyclin H (CCNH); SPR, KD relative to CCNH-Amp, listed as Clys): 0.0002748 and 2.75E-04
- kon (Cyclin H (CCNH); SPR, binding to CCNH, association rate, read-out: Ka): 99200 M⁻¹ s⁻¹
- Kd (Cyclin H (CCNH); SPR, binding to CCNH, dissociation rate): 0.00171 s⁻¹
- Kd (Cyclin H (CCNH); SPR, binding to CCNH, column pK, row KD (M), read-out: pK of KD (converted)): 1.72e-08 M
- pK of Kd (/s) (Cyclin H (CCNH); SPR, binding to CCNH, column pK, row Kd (/s)): 2.768

Several values for one entry are separate records, joined by “and”; a condition that tells them apart may be missing. Equal values may be shown once. Read-outs that look alike come from different tables or passages of the source.
